Tests used:
[1] = target: mPGES-1 in A549 cells (Homo sapiens (Human), UniProt O14684); experiment: A549 cell-based assay (PGE2 formation, 50% human serum); conditions: read-out: mPGES-1 inhibitory effect IC50 in the cell assay, IL-1β 5 ng/ml, 10 nM arachidonic acid, 20-24 h
[2] = target: recombinant human mPGES-1 (Homo sapiens (Human), UniProt O14684); experiment: mPGES-1 enzyme assay (HTRF detection of PGE2); conditions: read-out: mPGES-1 inhibitory effect IC50 in the enzyme assay; recombinant human mPGES-1 microsomes, PGH2 2 μM, 60 seconds

Sequences of proteins named here, by UniProt entry; tags and fusion partners are left off.
UniProt O14684, whole entry: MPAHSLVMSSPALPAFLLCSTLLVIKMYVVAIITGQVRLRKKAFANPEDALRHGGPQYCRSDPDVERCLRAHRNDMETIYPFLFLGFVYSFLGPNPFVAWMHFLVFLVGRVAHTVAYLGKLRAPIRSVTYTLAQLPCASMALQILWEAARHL

Compound `CC(C)(C)C(=O)NCc1ccc(Cl)c(Nc2nc3cc(C(=O)N[C@H]4CC[C@H](C(F)(F)F)CC4)c(N4CCC(F)(F)CC4)cc3n2CC(F)F)c1Cl` (relative stereo) has an IC50 [1] of less than 1 nM and an IC50 [2] of 2 nM.

— US8674113B2, “Compounds” (Boehringer Ingelheim International GmbH, priority 2010, dated 2014)
